## Permeability data for macrocyclic peptides

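Lipid, pH, incubation time, direction and concentration are not recorded in the data file. Other peptides of the study may be missing here. Entries at the database's floor value (log10 P of -10) are not listed.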

PAMPA is the parallel artificial membrane permeability assay, which has no cells and reads passive diffusion. Caco-2 values are permeabilities across monolayers of Caco-2 human intestinal cells. Permeability is given as log10 of P in cm/s; higher (less negative) is more permeable. Cells with "–" have no entry in this list.

structure (SMILES),PAMPA (log10 cm/s),Caco-2 (log10 cm/s)
CC(C)C[C@@H]1NC(=O)CN(C)C(=O)C[C@H](C)CCNC(=O)[C@H](Cc2ccccc2)NC1=O,-7.68,-5.55
CC(C)C[C@@H]1NC(=O)[C@H](C)NC(=O)[C@H](C)CCCNC(=O)[C@H](Cc2ccccc2)NC1=O,-6.64,-4.71
CC(C)C[C@H]1C(=O)N[C@@H](Cc2ccccc2)C(=O)NCCC[C@H](C)C(=O)N[C@@H](C)C(=O)N1C,-6.01,–
CC(C)CN1CC(=O)N[C@@H](Cc2ccccc2)C(=O)N[C@@H](C)CCCC(=O)N[C@@H](C)C1=O,-7.21,-5.22
CC(C)C[C@@H]1NC(=O)[C@H](C)NC(=O)CC[C@H](C)CNC(=O)CN(Cc2ccccc2)C1=O,-6.98,-4.81
CC(C)C[C@@H]1NC(=O)CN(C)C(=O)CC[C@@H](C)CNC(=O)[C@H](Cc2ccccc2)NC1=O,-7.63,-5.46
CC(C)C[C@@H]1NC(=O)CN(C)C(=O)CC[C@H](C)CNC(=O)[C@H](Cc2ccccc2)NC1=O,-6.63,-4.95
CC(C)CN1CC(=O)N[C@@H](Cc2ccccc2)C(=O)NCC[C@@H](C)CC(=O)N[C@@H](C)C1=O,-5.84,-4.45
CC(C)C[C@@H]1NC(=O)[C@H](C)NC(=O)CCC[C@H](C)NC(=O)CN(Cc2ccccc2)C1=O,-6.65,-5.24
CC(C)CN1CC(=O)N[C@@H](Cc2ccccc2)C(=O)NCC[C@H](C)CC(=O)N[C@@H](C)C1=O,-5.97,-4.57
CC(C)C[C@H]1NC(=O)[C@H](C)NC(=O)[C@@H](C)CCCNC(=O)[C@H](Cc2ccccc2)NC1=O,-7.41,–
CC(C)C[C@@H]1NC(=O)[C@H](C)NC(=O)CCC[C@@H](C)NC(=O)CN(Cc2ccccc2)C1=O,-6.81,-4.99
CC(C)C[C@@H]1NC(=O)CN(C)C(=O)CCC[C@H](C)NC(=O)[C@H](Cc2ccccc2)NC1=O,-6.86,-5.25
CC(C)C[C@@H]1NC(=O)[C@H](C)NC(=O)CCC[C@H](C)NC(=O)[C@H](Cc2ccccc2)NC1=O,-7.49,-5.51

Collected by the curators of CycPeptMPDB (Li et al. 2023) from Comeau et al. 2021, doi:10.1021/acs.jmedchem.0c02036.